Binding of CDR-mutated scFvs to a peptide of the spike HR2 region

Target peptide (SARS-CoV-2 spike, HR2 region): PDVDLGDISGINAS

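The parent was found by panning a naive human phage display library on the peptide. The library (AAYL50) carries one to three amino acid substitutions per variant, with no insertions or deletions. In AlphaSeq, yeast of one mating type display the scFv and yeast of the other type display the target. Pairs that bind mate more often; barcode pairs of the diploids are counted by sequencing. A regression on co-assayed BCL2-family reference pairs converts the normalised counts of each replicate to an apparent Kd. There are three technical replicates.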

The variants keep the heavy chain, the linker and the frameworks of Ab-14 (scFv order VH, the linker GGGGSGGGGSGGGGS, VL).
VH: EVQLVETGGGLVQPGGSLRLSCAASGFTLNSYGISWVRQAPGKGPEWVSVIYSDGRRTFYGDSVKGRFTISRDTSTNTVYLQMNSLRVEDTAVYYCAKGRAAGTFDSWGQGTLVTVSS
VL: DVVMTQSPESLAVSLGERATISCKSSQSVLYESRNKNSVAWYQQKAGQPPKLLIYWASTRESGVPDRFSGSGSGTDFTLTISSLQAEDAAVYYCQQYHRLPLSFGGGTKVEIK

Changes read parent residue, position, new residue, counted from the first residue of the VL shown. All variants listed here change N35 of the VL, counted from its first residue. The Kd shown is the geometric mean over detected replicates; a lower Kd is a better binder. An entry "nd" has no value in the source: the pair was not observed among the diploids in any replicate. This suggests poor binding but is not conclusive. For reference, the parent read 4.4 nM as the reference entry and 48 nM as a member of this library. Nonspecific signal, from three strains lacking the peptide, appeared in 18% of pairings of library AAYL50, centred on 15 µM (5% of these signals below 970 nM); values are not corrected for it.

Variant E32K/N35M/W56H showed 91 nM (3 of 3 replicates). With S33I/N35D the result was 460 nM (3 of 3 replicates). Variant E32T/N35I/A40L showed 88 µM (1 of 3 replicates). Variant N35R/S58P/S103P gave 130 µM (3 of 3 replicates). For S33W/N35K, the assay gave nd (0 of 3 replicates).

For S33D/N35F/S103Q, the assay gave 17 nM (3 of 3 replicates). Variant L30N/N35F/Q95M showed nd (0 of 3 replicates). Variant N35W/V39I/E61I gave 47 nM (3 of 3 replicates). For S33K/N35F/S58K, the assay gave 1.4 µM (1 of 3 replicates). Variant L30M/N35E/N37L showed 190 nM (3 of 3 replicates).

Variant Y31D/N35Y/L100W gave 2.4 nM (3 of 3 replicates). For S26N/N35S/A57K, the assay gave 1.5 µM (3 of 3 replicates). For N35G/K36D/Q96D, the assay gave 9.5 nM (3 of 3 replicates). With N35T/S62F the result was 14 nM (3 of 3 replicates). For N35E, the assay gave nd (0 of 3 replicates).

Variant N35I/Q95L gave nd (0 of 3 replicates). With S25G/N35K/V39M the result was 160 nM (3 of 3 replicates). Variant V29R/N35W/H98D gave 12 nM (3 of 3 replicates). Variant N35M/T59C/L100E showed 26 nM (3 of 3 replicates). Variant S25T/N35Y/T59K gave nd (0 of 3 replicates).

With N35K/L100G/L102H the result was 21 nM (3 of 3 replicates). For V29F/N35W/S62H, the assay gave 19 nM (3 of 3 replicates). With K24T/N35C/A57K the result was nd (0 of 3 replicates). With Y31L/N35Q/R99W the result was 15 nM (3 of 3 replicates). Variant N35A/N37A/V39F gave 29 µM (2 of 3 replicates).

With S26E/N35M the result was 28 nM (3 of 3 replicates). Variant N35V/Q96V/Y97G gave 22 nM (3 of 3 replicates). Variant K24G/N35Q gave nd (0 of 3 replicates). Variant N35L/P101W gave 7.8 nM (3 of 3 replicates). For N35D/A40L, the assay gave 70 µM (2 of 3 replicates).

Variant N35S/R60F showed nd (0 of 3 replicates). For R34W/N35V/W56L, the assay gave 71 nM (3 of 3 replicates). For N35R/Q95G/L100Q, the assay gave 30 µM (1 of 3 replicates). Variant S25F/N35T/W56N gave 230 pM (3 of 3 replicates).

Source: Engelhart et al. 2022 (doi:10.1038/s41597-022-01779-4), MIT Lincoln Laboratory and A-Alpha Bio; data file from the FLAb repository.